Results: ChEMBL document CHEMBL1152515 (Bioorg Med Chem, 2009)
pIC50, pKi: −log10 of the molar value.

Amino acid sequences for entries named in this document (tags omitted). A change or cut given only in a name is not applied to a line headed by its entry.
UniProt P32300, whole entry: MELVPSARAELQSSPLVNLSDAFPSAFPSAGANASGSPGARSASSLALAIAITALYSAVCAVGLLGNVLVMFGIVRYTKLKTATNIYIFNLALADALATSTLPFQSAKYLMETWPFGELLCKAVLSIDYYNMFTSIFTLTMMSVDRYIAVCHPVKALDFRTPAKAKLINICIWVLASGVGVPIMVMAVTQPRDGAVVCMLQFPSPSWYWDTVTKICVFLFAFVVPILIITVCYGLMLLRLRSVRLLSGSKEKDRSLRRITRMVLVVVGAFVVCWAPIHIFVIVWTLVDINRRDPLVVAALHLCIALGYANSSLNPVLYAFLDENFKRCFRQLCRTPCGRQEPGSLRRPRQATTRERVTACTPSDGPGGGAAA
UniProt P35367, whole entry: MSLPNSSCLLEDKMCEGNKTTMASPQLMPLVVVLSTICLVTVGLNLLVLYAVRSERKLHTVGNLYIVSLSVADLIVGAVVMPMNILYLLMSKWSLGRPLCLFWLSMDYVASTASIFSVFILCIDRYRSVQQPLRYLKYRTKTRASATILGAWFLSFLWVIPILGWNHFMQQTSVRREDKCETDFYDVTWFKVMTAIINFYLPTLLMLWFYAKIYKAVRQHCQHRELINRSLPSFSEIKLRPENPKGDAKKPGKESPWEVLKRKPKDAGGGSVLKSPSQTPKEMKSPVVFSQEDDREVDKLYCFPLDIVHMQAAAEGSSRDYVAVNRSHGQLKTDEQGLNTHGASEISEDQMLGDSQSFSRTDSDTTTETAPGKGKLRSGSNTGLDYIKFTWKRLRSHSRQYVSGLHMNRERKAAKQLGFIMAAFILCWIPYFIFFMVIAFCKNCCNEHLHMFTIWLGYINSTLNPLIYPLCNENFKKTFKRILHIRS
UniProt P28221: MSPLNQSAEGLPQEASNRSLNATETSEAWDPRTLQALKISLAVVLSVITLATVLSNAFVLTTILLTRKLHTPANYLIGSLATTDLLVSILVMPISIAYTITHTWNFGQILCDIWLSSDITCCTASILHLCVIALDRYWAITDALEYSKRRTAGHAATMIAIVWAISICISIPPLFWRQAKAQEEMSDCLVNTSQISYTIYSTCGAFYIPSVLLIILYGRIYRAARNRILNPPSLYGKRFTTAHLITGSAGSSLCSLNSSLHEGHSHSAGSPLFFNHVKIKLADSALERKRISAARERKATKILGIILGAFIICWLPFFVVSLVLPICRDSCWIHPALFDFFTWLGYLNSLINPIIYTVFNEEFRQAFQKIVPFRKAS
UniProt P42866, whole entry: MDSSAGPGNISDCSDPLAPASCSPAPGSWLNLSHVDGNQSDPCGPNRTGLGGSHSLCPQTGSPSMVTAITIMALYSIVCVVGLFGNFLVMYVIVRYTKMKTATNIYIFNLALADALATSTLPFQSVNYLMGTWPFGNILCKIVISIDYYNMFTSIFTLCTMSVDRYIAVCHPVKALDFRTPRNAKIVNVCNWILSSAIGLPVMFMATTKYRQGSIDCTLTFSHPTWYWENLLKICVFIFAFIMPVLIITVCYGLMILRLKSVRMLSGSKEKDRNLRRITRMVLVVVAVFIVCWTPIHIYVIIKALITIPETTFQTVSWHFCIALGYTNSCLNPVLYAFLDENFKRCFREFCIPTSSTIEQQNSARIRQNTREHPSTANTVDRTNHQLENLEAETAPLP
UniProt P21728, whole entry: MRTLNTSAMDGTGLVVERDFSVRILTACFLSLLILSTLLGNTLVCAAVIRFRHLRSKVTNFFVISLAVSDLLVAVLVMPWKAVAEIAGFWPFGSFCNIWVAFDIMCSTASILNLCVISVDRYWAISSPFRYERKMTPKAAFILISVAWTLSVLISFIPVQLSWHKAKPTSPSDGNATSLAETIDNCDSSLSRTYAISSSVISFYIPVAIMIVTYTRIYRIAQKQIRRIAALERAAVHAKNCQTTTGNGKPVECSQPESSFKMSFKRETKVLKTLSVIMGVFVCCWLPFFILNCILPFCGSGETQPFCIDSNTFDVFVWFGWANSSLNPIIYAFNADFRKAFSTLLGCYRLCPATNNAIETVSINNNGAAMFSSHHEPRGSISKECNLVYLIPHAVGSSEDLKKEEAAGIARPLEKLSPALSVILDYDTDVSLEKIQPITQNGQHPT

Experiments:
[1] = target: Delta-type opioid receptor (Mus musculus, UniProt P32300); assay: Displacement of [3H]bremazocine from mouse delta opioid receptor expressed in HEK293 cells by liquid scintillation counting; assay type: cell-based
[2] = target: Histamine H1 receptor (Homo sapiens, UniProt P35367); assay: Inhibition of histamine H1 receptor
[3] = target: 5-hydroxytryptamine receptor 1D (Homo sapiens, UniProt P28221); assay: Inhibition of 5HT1D receptor
[4] = target: Mu-type opioid receptor (Mus musculus, UniProt P42866); assay: Displacement of [3H]DAMGO from mouse mu opioid receptor expressed in HEK293 cells by liquid scintillation counting; assay type: cell-based
[5] = target: D(1A) dopamine receptor (Homo sapiens, UniProt P21728); assay: Inhibition of dopamine D1 receptor

Row | Compound | pKi [1] | pIC50 [2] | pIC50 [3] | pIC50 [4] | pIC50 [5]
1 | CN(C)Cc1nnc(-c2ccc(C(C)(C)C)cc2)n1-c1cccc(O)c1 | 6.34 | – | – | – | –
2 | CN(C)Cc1nc(-c2ccc(C(C)(C)C)cc2)n(-c2cccc(O)c2)n1 | – | < 5.00 | < 5.00 | < 5.00 | < 5.00
